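48-hour exposure; five concentrations; linearly interpolated endpoints. Abbreviation: GI50, concentration required for 50% inhibition of growth. Definition used: TGI = concentration required for complete inhibition of growth.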
Legend:
Assay in all cases: inhibition of tumour cell growth, NCI panel, 48 h
[1] = system: 786-0 renal
[2] = system: A498 renal
[3] = system: A549 NSCLC
[4] = system: ACHN renal
[5] = system: BT-549 breast
[6] = system: CAKI-1 renal
[7] = system: COLO 205 colon
[8] = system: DU-145 prostate
[9] = system: EKVX NSCLC
[10] = system: HCC-2998 colon
[11] = system: HCT-15 colon
[12] = system: HL-60(TB) leukemia
[13] = system: HOP-62 NSCLC
[14] = system: HOP-92 NSCLC
[15] = system: HS 578T breast
[16] = system: HT29 colon
[17] = system: IGROV1 ovarian
[18] = system: K-562 leukemia
[19] = system: KM12 colon
[20] = system: MALME-3M melanoma
[21] = system: MDA-MB-231 breast
[22] = system: MDA-MB-435
[23] = system: MOLT-4 leukemia
[24] = system: NCI-H226 lung
[25] = system: NCI-H23 lung
[26] = system: NCI-H322M lung
[27] = system: NCI-H460 lung
[28] = system: NCI-H522 lung
[29] = system: NCI/ADR-RES ovarian
[30] = system: OVCAR-3 ovarian
[31] = system: OVCAR-4 ovarian
[32] = system: OVCAR-5 ovarian
[33] = system: OVCAR-8 ovarian
[34] = system: PC-3 prostate
[35] = system: RPMI-8226 leukemia
[36] = system: RXF 393 renal
[37] = system: SF-268 CNS
[38] = system: SF-295 CNS
[39] = system: SK-MEL-2 melanoma
[40] = system: SK-MEL-28 melanoma
[41] = system: SK-MEL-5 melanoma
[42] = system: SK-OV-3 ovarian
[43] = system: SN12C renal
[44] = system: SNB-19 CNS
[45] = system: SNB-75 CNS
[46] = system: SR leukemia
[47] = system: SW-620 colon
[48] = system: T-47D breast
[49] = system: TK-10 renal
[50] = system: U251 CNS
[51] = system: UACC-257 melanoma
[52] = system: UACC-62 melanoma
[53] = system: UO-31 renal

Compound: Cc1c([N+](=O)[O-])cc([N+](=O)[O-])c(Br)c1[N+](=O)[O-]
- GI50 [1]: 1.8 µM
- TGI [1]: 3.33 µM
- GI50 [2]: 14.2 µM
- TGI [2]: 27.3 µM
- GI50 [3]: 18.6 µM
- TGI [3]: 41.5 µM
- GI50 [4]: 1.85 µM
- TGI [4]: 3.46 µM
- GI50 [5]: 16.2 µM
- TGI [5]: 30.1 µM
- GI50 [6]: 1.72 µM
- TGI [6]: 3.43 µM
- GI50 [7]: 1.6 µM
- TGI [7]: 3.1 µM
- GI50 [8]: 10.6 µM
- TGI [8]: 22.6 µM
- GI50 [9]: 14.9 µM
- TGI [9]: 31.1 µM
- GI50 [10]: 17.6 µM
- TGI [10]: 33.2 µM
- GI50 [11]: 1.58 µM
- TGI [11]: 4.25 µM
- GI50 [12]: 2.68 µM
- TGI [12]: 5.4 µM
- GI50 [13]: 13.3 µM
- TGI [13]: 26.1 µM
- GI50 [14]: 1.66 µM
- TGI [14]: 3.13 µM
- GI50 [15]: 7.21 µM
- TGI [15]: 40.5 µM
- GI50 [16]: 1.81 µM
- TGI [16]: 3.56 µM
- GI50 [17]: 1.78 µM
- TGI [17]: 4.22 µM
- GI50 [18]: 1.76 µM
- TGI [18]: 7.81 µM
- GI50 [19]: 11.8 µM
- TGI [19]: 24.4 µM
- GI50 [20]: 1.74 µM
- TGI [20]: 3.6 µM
- GI50 [21]: 11.4 µM
- TGI [21]: 26.9 µM
- GI50 [22]: 2.9 µM
- TGI [22]: 11.9 µM
- GI50 [23]: 2.84 µM
- TGI [23]: 7.6 µM
- GI50 [24]: 13.4 µM
- TGI [24]: 27.8 µM
- GI50 [25]: 19 µM
- TGI [25]: 48.3 µM
- GI50 [26]: 16.2 µM
- TGI [26]: 33.7 µM
- GI50 [27]: 19.4 µM
- TGI [27]: 52.7 µM
- GI50 [28]: 1.52 µM
- TGI [28]: 2.86 µM
- GI50 [29]: 2.91 µM
- TGI [29]: 8.82 µM
- GI50 [30]: 1.71 µM
- TGI [30]: 3.08 µM
- GI50 [31]: 1.79 µM
- TGI [31]: 3.19 µM
- GI50 [32]: 5.14 µM
- TGI [32]: 24 µM
- GI50 [33]: 3.06 µM
- TGI [33]: 10.8 µM
- GI50 [34]: 1.85 µM
- TGI [34]: 3.68 µM
- GI50 [35]: 2.06 µM
- TGI [35]: 6.59 µM
- GI50 [36]: 1.79 µM
- TGI [36]: 3.19 µM
- GI50 [37]: 14 µM
- TGI [37]: 27.1 µM
- GI50 [38]: 15.5 µM
- TGI [38]: 31.1 µM
- GI50 [39]: 11.9 µM
- TGI [39]: 24.7 µM
- GI50 [40]: 12.3 µM
- TGI [40]: 25.5 µM
- GI50 [41]: 14.3 µM
- TGI [41]: 27.6 µM
- GI50 [42]: 15.2 µM
- TGI [42]: 28.5 µM
- GI50 [43]: 12.3 µM
- TGI [43]: 41.5 µM
- GI50 [44]: 16.9 µM
- TGI [44]: 33.7 µM
- GI50 [45]: 2.65 µM
- TGI [45]: 9.43 µM
- GI50 [46]: 2.44 µM
- TGI [46]: 7.39 µM
- GI50 [47]: 1.8 µM
- TGI [47]: 3.57 µM
- GI50 [48]: 1.74 µM
- TGI [48]: 4.59 µM
- GI50 [49]: 10.8 µM
- TGI [49]: 23 µM
- GI50 [50]: 4.38 µM
- TGI [50]: 18.8 µM
- GI50 [51]: 1.67 µM
- TGI [51]: 3.12 µM
- GI50 [52]: 1.79 µM
- TGI [52]: 3.61 µM
- GI50 [53]: 1.46 µM
- TGI [53]: 3.06 µM

Reference: PubChem BioAssay (NCI)
